Data taken from patent US9371305B2, “Deuterated benzopyran compounds and application thereof” (Guangzhou Institutes of Biomedicine And Health, Chinese …, priority 2012, dated 2016).

System: generation of PGE2 in the whole blood
Test: whole blood assay, lipopolysaccharide-induced yield of PGE2 in heparin blood (ELISA)
Format: cell-based
Conditions: human whole blood COX enzyme activity test
Description: Deuterated benzopyran compounds of different concentrations were uniformly mixed with ovine COX-1 and human recombinant COX-2 for incubation for 15 min, respectively, and then the system was added with Heme and ADHP for incubation for another 2 min and finally added with substrate arachidonic acid. The light emission intensity of the reaction product at 595 nm was immediately detected by a microplate reader under exciting light at 530 nm. […] In the whole blood assay, venous blood of healthy donors was collected with a non-anticoagulation tube and a heparin tube, deuterated benzopyran compounds of different concentrations (1×10^−8 to 1×10^−4) were mixed with the blood in the non-anticoagulation tube, the supernatant was collected after the blood was coagulated and then measured by ELISA in terms of the yield of TXB2; and deuterated benzopyran compounds of different concentrations (1×10^−8 to 1×10^−4) were mixed with the blood in the heparin tube, the mixture was added with lipopolysaccharide until the final concentration was 100 μg/mL, mixed uniformly and then kept stand overnight at 37° C., the supernatant was collected by centrifugation and then measured by ELISA in terms of the yield of PGE2. […]

## [2H]C([2H])([2H])c1cc(Cl)c2c(c1)C=C(C(=O)O)C(C(F)(F)F)O2 (stereo not shown) [GIBH-1018, 8-chloro-6-(methyl-D3)-2-(trifluoromethyl)-2H-chromene-3-carboxylic acid]
  selectivity to the inhibition of COX-2 enzyme of blood cells: better selectivity
